Results taken from patent publication US20260102425A1 (Allergan, Inc., priority 2018, published 2026).
Like-named read-outs stand apart in the source and are kept apart here.

Tests used:
rabbits [1] = conditions: not washed out, over 24 hours, FIG. 8
rabbits [2] = conditions: 250 ul, not washed out, FIG. 7; for corneal staining: at 24 hrs

With sodium chlorite the “ocular surface hyperemic response” value (rabbits [1]; 8000 ppm sodium chlorite activated with buffer greater than or equal to pH 3, 250 ul) was “elicited no response”, the “ocular surface hyperemic response” value (rabbits [1]; 8000 ppm sodium chlorite activated with pH 2 buffer, 250 ul) was “trace response” and the “visual disturbance over a 24-hour period compared with povidone-iodine 5% eye wash protocol” value (Dutch-Belted rabbits; sodium chlorite 1600 ppm eye drop, rabbits with normal vision) was “less visual disturbance”. For the same substance, the “significance of peak visual deficit, study eye compared with non-study eye” value (Dutch-Belted rabbits; sodium chlorite 1600 ppm, at 1 hour, p=0.06, paired Student's t test) was “not statistically significant”, the “punctate corneal staining (mean NEI grade 0 to 3)” value (rabbits [2]; sodium chlorite 8000 ppm activated with pH 3 buffer, at 24 hours, n=8) was 1.0±1.1 and the corneal staining (rabbits [2]; sodium chlorite 8000 ppm activated with pH 4 buffer, n=8) was “did not show any corneal staining”. The corneal staining (rabbits [2]; sodium chlorite 8000 ppm activated with pH 5 buffer, n=4) was “did not show any corneal staining”.
